Data as given in publication PMC5775417 (Scientific Reports, 2018).

Chains of the proteins cited; added tags and fusions are not shown.
UniProt P14416, whole entry: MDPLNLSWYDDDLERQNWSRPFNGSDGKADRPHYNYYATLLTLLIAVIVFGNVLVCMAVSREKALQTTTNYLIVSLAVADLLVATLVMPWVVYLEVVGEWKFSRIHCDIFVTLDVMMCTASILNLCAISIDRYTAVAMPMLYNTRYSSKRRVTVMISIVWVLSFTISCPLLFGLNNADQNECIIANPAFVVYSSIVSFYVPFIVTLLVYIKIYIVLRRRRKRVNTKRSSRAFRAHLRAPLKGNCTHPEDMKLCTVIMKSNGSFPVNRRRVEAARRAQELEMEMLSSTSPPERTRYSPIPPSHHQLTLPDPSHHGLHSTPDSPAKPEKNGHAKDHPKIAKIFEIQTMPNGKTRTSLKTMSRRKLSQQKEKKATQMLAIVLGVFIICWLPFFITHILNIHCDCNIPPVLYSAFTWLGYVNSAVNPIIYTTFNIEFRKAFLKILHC
UniProt P14416, whole entry E95A: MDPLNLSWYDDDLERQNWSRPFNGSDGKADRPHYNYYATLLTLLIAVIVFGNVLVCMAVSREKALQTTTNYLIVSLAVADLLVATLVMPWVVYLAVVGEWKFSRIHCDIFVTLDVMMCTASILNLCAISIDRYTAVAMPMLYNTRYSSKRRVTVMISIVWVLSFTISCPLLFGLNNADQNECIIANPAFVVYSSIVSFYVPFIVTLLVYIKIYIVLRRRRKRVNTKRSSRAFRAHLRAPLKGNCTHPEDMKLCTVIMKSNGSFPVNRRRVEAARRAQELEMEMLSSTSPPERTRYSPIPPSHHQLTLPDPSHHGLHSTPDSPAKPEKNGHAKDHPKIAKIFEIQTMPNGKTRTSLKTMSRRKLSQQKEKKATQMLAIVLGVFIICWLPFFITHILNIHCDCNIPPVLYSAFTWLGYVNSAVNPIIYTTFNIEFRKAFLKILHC
UniProt P14416, whole entry D80A: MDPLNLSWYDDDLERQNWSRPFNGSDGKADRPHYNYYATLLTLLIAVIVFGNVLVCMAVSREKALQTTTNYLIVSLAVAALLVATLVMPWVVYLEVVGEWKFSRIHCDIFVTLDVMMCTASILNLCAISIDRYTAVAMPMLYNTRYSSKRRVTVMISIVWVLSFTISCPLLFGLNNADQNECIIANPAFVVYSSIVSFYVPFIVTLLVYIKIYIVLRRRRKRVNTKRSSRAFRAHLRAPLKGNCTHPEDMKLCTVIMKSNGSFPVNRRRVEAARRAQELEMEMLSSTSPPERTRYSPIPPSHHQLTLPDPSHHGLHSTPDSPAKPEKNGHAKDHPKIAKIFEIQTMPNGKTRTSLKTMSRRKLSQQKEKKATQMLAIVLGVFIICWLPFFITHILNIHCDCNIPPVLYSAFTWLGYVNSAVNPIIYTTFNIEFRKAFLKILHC

Assays:
Assay in all cases: [3H]spiperone saturation binding, membranes of Flp-In CHO cells
WT c-myc-D2LR = molecular target: T1, WT c-myc-D2LR (Homo sapiens, UniProt P14416)
T1 construct: expressed in transfected cells
Procedure: (§1) Flp-In CHO cells (Invitrogen) were transfected with the pOG44 vector encoding Flp recombinase and the pDEST vector encoding the wild-type or mutant c-Myc-D2LR at a ratio of 9:1 using polyethylenimine (Polysciences, Warrington, PA) as transfection reagent. 24 hours after transfection the cells were subcultured and the medium was supplemented with 700 μg/ml hygromycin B as selection agent to obtain cells stably expressing the c-Myc-D2LR. FlpIn CHO cells stably expressing the wild-type or mutant c-Myc-D2LR were grown in Dulbecco’s modified Eagle’s medium (DMEM) supplemented with 10% fetal bovine serum and 200 µg/mL of Hygromycin-B, and maintained at 37 °C in a humidified incubator containing 5% CO2. When cells were approximately 90% confluent, they were harvested and centrifuged (300 g, 3 min, 4 °C). The resulting pellet was resuspended in assay buffer either in the presence (20 mM HEPES, 100 mM NaCl, 6 mM MgCl2, 1 mM EGTA, and 1 mM EDTA, pH 7.4) or absence (20 mM HEPES, 100 mM NMDG, 6 mM MgCl2, 1 mM EGTA, and 1 mM EDTA, pH 7.4) of sodium ions. The centrifugation procedure was repeated. The intact cell pellet was then resuspended in assay buffer and homogenized using a Polytron homogenizer for three 10 s intervals on the maximum setting, with 30 s periods on ice between each burst. The homogenate volume was brought up to 30 mL, the sample was centrifuged (350 g, 5 min, 4 °C), the pellet was discarded, and the supernatant was centrifuged at 30 000 g for 1 hr at 4 °C. The resulting pellet was resuspended in 5 mL of assay buffer, and the protein content was determined using the bicinchoninic acid assay (BCA assay). The homogenate was then separated into 500 µl aliquots and stored at −80 °C until it was required for binding assays.
(§2) Binding was terminated by fast-flow filtration over GF/B membranes using a Brandel harvester followed by three washes with ice-cold 0.9% NaCl. Bound radioactivity was measured in a Tri-Carb 2900TR liquid scintillation counter (PerkinElmer).

E95^2.65A c-myc-D2LR = molecular target: T2, E95^2.65A c-myc-D2LR (Homo sapiens, UniProt P14416, E95A)
T2 construct: expressed in transfected cells
Procedure: as §1, §2

D80^2.50A c-myc-D2LR = molecular target: T3, D80^2.50A c-myc-D2LR (Homo sapiens, UniProt P14416, D80A)
T3 construct: expressed in transfected cells
Procedure: as §1, §2

[1] = 100 mM NMDG (no Na+), listed as [^3H]spiperone
[2] = 100 mM NaCl, listed as [^3H]spiperone

SMILES: O=C(CCCN1CCC2(CC1)C(=O)NCN2c1ccccc1)c1ccc(F)cc1 [[ ^3 H]spiperone, [^3H]spiperone]
- Bmax (number of receptors labelled) (WT c-myc-D2LR; 100 mM NMDG (no Na+)): 216.1 ± 10.8 fmol/mg
- Bmax (number of receptors labelled) (WT c-myc-D2LR; [1]): 216.1 fmol/mg
- Bmax (number of receptors labelled) (WT c-myc-D2LR; 100 mM NaCl): 237.0 ± 6.7 fmol/mg
- Bmax (number of receptors labelled) (WT c-myc-D2LR; [2]): 237.0 fmol/mg
- Bmax (number of receptors labelled) (E95^2.65A c-myc-D2LR; 100 mM NMDG (no Na+)): 196.6 ± 8.8 fmol/mg
- Bmax (number of receptors labelled) (E95^2.65A c-myc-D2LR; [1]): 196.6 fmol/mg
- Bmax (number of receptors labelled) (E95^2.65A c-myc-D2LR; 100 mM NaCl): 225.5 ± 27.2 fmol/mg
- Bmax (number of receptors labelled) (E95^2.65A c-myc-D2LR; [2]): 225.5 fmol/mg
- Bmax (number of receptors labelled) (D80^2.50A c-myc-D2LR; 100 mM NMDG (no Na+)): 192.4 ± 10.7 fmol/mg
- Bmax (number of receptors labelled) (D80^2.50A c-myc-D2LR; 100 mM NaCl): 215.4 ± 7.0 fmol/mg
- Bmax (number of receptors labelled) (D80^2.50A c-myc-D2LR; [2]): 215.4 fmol/mg
